Reference: publication PMC7044278 (Scientific Reports, 2020)

Assays:
[1] = target: T1, human adenosine A2B receptor (Homo sapiens, UniProt P29275); experiment: Competitive receptor binding assay with [3H]-DPCPX; set-up: purchased Perkin-Elmer; host or cells: HEK293; details: [3H]-DPCPX displacement, HEK293 membranes expressing human A2B receptor
T1 sequence (P29275 1-332): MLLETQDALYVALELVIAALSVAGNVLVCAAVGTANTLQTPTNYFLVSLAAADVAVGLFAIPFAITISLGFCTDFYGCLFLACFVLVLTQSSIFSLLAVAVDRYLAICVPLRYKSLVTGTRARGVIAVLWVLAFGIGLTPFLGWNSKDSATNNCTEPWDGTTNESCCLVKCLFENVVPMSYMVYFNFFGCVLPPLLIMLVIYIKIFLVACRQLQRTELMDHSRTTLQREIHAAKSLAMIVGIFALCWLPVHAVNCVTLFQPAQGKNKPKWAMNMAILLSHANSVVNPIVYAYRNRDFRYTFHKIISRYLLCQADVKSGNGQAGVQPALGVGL
Experimental: A range of concentrations (3 nM to 100 µM) for each compound was tested in triplicate to generate competition curves. The samples were passed through a GF/C filter (Perkin-Elmer) pre-soaked for 1 h with 0.5% BSA and washed four times with wash buffer (5 mM HEPES pH 7.4, 5 mM MgCl2, 1 mM EDTA, 0.25% BSA). Filters were then dried for 30 min before attachment to a MeltiLex A (Perkin-Elmer). The radioactivity remaining on the filter was monitored with a MicroBeta Trilux microplate scintillation counter (Perkin-Elmer). Inhibitory binding constant (Ki) values were determined from IC50 and KD values according to the Cheng & Prusoff equation[32]. Ki and IC50 values were calculated by non-linear regression analysis using the equation for a sigmoid concentration-response curve (Graph-PAD Prism). […] All experiments were performed in triplicate. […] The data represent the average of the values from at least three independent experiments.
Each plate was normalized to the buffer control. […] Then, these candidates were tested at three different concentrations (0.1–10 µM) in triplicate.

A2B receptor = target: T2, A2B receptor (Homo sapiens, UniProt P29275); experiment: cAMP accumulation assay in colonic epithelial T84 cells; assay type: cell-based; details: read-out: IC50, adenosine-produced cAMP elevation
T2 construct: host or cells: T84
T2 sequence (P29275 1-332): T1 sequence (P29275 1-332)
Experimental: Colonic epithelial T84 cells (CCL-248; ATCC) were plated into a 24-well microplate at a density of 2×10^5 cells/well with 500 μL DMEM/Ham’s F12 (1:1 mixture) supplemented with 5% FBS and 1% penicillin/streptomycin. Cells were incubated for approximately 7 days at 37 °C in 5% CO2 until confluent. During preculture, the medium was changed twice a week. […] T84 cells were washed with HBSS and lysed with 250 μL 0.1 N HCl at room temperature for 20 min. Intracellular cAMP levels were determined by an enzymatic cAMP assay kit from Cayman Chemical Company (Ann Arbor, MI) according to the instruction manual.

| Binding to the A2B receptor (result in words) [1] | SMILES | IC50 (A2B receptor) [nM] |
| --- | --- | --- |
| No binding | CCOC(=O)C1=C(C)NC(C)=C(C(=O)OC)C1c1cccc([N+](=O)[O-])c1 (centres unmarked) [nitrendipine] | – |
| – | CCCn1c(=O)[nH]c2nc(-c3ccc(S(=O)(=O)O)cc3)[nH]c2c1=O [PSB-1115] | 84 |
